Literature values, collected in patent US20220023433A1, “Saponin Conjugates” (Sapreme Technologies B.V., priority 2018, published 2022).

Details: monkeys; cited from earlier work

ado-trastuzumab emtansine
enhancement of the tolerable dose of DM1 by conjugation to trastuzumab: at least two-fold
